Experiments:
[1] = biological target: COX I (Homo sapiens, UniProt P23219); test: Inhibition of COX I in vitro (radiometric, partially purified enzyme); conditions: read-out: COX I IC50, 10 min preincubation, 20 micromolar [14C]arachidonic acid
Description: (§1) The COX I and COX II inhibitory activity of compounds of this invention in vitro was determined using partially purified COX I and COX II enzymes, prepared as described in J. Barnett et. al., Biochim. Biophys. Acta, 1209, 130–139 (1994).
(§2) COX I and COX II samples were diluted with Tris-HCl buffer (50 mM Tris-HCl, pH 7.9) containing 2 mM EDTA and 10% glycerol and reconstituted by incubating first with 2 mM phenol for 5 minutes and then with 1 micromolar hematin for an additional 5 minutes. 125 μl of the reconstituted COX I or COX II enzyme were preincubated for 10 minutes at room temperature in a shaking water bath with the compounds of the invention dissolved in 2–15 μl of DMSO or the carrier vehicles (control samples). The enzyme reaction was initiated by adding 25 μl of 1-[14C]arachidonic acid (80,000–100,000 cpm/tube; 20 micromolar final concentration) and the reaction was allowed to continue for an additional 45 seconds. The reaction was terminated by adding 100 μl of 2N HCl and 750 μl water. An aliquot (950 μl) of the reaction mixture was loaded onto a 1 ml C18 Sep-Pak column (J. T. Baker, Phillipsburg, N.J.) which had been previously washed with 2–3 ml methanol and equilibrated with 5–6 ml distilled water. Oxygenated products were quantitatively eluted with 3 ml of acetonitrile/water/acetic acid (50:50:0.1, v/v) and the radioactivity in the eluate determined in a scintillation counter.

Chains of the proteins cited; added tags and fusions are not shown. Residues count along the entry.
UniProt P23219, 24-599 limits assumed: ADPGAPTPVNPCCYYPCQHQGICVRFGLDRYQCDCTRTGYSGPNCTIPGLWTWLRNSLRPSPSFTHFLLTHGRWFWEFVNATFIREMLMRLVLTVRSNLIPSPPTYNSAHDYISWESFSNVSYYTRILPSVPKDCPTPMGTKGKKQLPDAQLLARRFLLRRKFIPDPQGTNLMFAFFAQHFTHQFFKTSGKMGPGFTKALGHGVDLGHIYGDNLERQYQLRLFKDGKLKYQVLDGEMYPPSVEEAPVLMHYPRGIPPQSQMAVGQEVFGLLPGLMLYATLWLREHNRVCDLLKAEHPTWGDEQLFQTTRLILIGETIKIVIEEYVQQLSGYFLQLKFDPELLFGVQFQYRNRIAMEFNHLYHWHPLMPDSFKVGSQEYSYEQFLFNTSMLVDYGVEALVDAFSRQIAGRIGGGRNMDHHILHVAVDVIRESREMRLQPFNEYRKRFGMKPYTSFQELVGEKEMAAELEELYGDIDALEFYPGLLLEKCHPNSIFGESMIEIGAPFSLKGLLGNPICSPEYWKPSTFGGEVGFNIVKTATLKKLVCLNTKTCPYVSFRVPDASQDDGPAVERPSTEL
UniProt P35354, 18-604 limits assumed: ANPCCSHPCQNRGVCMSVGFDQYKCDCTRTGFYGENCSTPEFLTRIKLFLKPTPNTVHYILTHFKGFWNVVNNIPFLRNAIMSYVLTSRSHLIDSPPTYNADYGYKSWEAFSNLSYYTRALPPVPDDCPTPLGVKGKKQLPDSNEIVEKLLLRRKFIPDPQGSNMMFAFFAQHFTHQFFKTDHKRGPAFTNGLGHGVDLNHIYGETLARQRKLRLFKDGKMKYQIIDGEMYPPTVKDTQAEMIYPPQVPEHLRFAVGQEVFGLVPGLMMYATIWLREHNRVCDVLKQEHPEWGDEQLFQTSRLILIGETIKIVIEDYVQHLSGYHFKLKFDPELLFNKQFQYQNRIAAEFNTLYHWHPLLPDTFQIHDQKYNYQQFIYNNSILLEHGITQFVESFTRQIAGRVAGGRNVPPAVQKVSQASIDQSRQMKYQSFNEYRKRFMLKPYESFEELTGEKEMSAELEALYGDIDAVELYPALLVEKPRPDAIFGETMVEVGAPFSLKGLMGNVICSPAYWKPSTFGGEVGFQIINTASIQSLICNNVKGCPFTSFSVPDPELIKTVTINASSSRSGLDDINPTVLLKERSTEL

[2] = biological target: COX II (Homo sapiens, UniProt P35354); test: Inhibition of COX II in vitro (radiometric, partially purified enzyme); conditions: read-out: COX II IC50, 10 min preincubation, 20 micromolar [14C]arachidonic acid
Description: as §1, §2

Row | Structure (SMILES) | IC50 [1] | IC50 [2]
1 | CCCCN(Cc1ccc(OC)cc1)c1ccc(S(C)(=O)=O)cc1 | > 40000 nM | < 200 nM
2 | CCCCN(Cc1ccc(Cl)cc1)c1ccc(S(C)(=O)=O)cc1 | > 40000 nM | < 200 nM
3 | CCCCN(Cc1ccccc1F)c1ccc(S(C)(=O)=O)cc1 | > 15000 nM | < 200 nM
4 | CS(=O)(=O)c1ccc(N(Cc2ccc(F)cc2)CC2CC2)cc1 | > 40000 nM | < 200 nM
5 | CCCN(Cc1ccc(F)cc1)c1ccc(S(C)(=O)=O)cc1 | > 40000 nM | < 200 nM
6 | CCCCN(Cc1ccccc1OC)c1ccc(S(C)(=O)=O)cc1 | > 40000 nM | < 200 nM

Now from value to compound:

Row | IC50 [1] | IC50 [2] | Structure (SMILES)
7 | > 20000 nM | < 200 nM | CCCCN(Cc1ccccc1Cl)c1ccc(S(C)(=O)=O)cc1
8 | > 40000 nM | < 200 nM | CCCCCN(Cc1ccc(F)cc1)c1ccc(S(C)(=O)=O)cc1
9 | > 40000 nM | < 200 nM | CCCCN(Cc1ccc(F)cc1F)c1ccc(S(C)(=O)=O)cc1
10 | – | < 200 nM | CCCCN(Cc1ccc(F)cc1)c1ccc(S(C)(=O)=O)cc1
